# From PubChem BioAssay AID1508609 (The Scripps Research Institute Molecular Screening Center, 2020)
# Chains of the proteins cited; added tags and fusions are not shown.
# UniProt Q8TDV0, whole entry: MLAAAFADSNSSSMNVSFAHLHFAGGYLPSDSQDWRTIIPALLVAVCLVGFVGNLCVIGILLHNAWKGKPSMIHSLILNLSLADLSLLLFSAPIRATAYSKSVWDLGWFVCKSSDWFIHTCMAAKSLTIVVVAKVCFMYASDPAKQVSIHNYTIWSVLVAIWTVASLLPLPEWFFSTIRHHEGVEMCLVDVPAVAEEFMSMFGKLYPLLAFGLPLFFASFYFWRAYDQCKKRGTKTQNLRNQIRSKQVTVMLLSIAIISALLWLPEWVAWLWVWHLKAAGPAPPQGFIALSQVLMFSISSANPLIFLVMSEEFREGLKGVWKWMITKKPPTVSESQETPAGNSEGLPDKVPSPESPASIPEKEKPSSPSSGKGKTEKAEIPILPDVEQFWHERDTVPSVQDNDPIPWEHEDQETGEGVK
# The list shows a part of the results, in another mix than the full data. Calls of active or inactive are those of the source.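 Rule for the calls: active = mean percent activation across replicates above the confirmation screen cutoff of 4.91%; inactive = the rest.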
# Target: G-protein coupled receptor 151 (Homo sapiens) (UniProt Q8TDV0)
# Test: GPR151 activators, triplicate retest, confirmation, cell-based, PathHunter beta-arrestin, luminescence (AID 1508609)
# Settings: GPR151 PathHunter beta-arrestin cells, 90 min, at 11.2 µM, active compounds read high, % of EA-reagent control over plate median
row,Compound,activation
1,CCCN1CCC(Nc2ccc(Cl)cc2)CC1,inactive: 2.05%
